This passage reports Ki results from ChEMBL document CHEMBL1144325, “Synthesis and monoamine transporter affinity of new 2beta-carbomethoxy-3beta-[4-(substituted thiophenyl)]phenyltropanes: discovery of a selective SERT antagonist with picomolar potency” (Bioorg Med Chem Lett, 2005).

The chains behind the UniProt entries cited, without tags or fusion partners.
UniProt P23977, whole entry: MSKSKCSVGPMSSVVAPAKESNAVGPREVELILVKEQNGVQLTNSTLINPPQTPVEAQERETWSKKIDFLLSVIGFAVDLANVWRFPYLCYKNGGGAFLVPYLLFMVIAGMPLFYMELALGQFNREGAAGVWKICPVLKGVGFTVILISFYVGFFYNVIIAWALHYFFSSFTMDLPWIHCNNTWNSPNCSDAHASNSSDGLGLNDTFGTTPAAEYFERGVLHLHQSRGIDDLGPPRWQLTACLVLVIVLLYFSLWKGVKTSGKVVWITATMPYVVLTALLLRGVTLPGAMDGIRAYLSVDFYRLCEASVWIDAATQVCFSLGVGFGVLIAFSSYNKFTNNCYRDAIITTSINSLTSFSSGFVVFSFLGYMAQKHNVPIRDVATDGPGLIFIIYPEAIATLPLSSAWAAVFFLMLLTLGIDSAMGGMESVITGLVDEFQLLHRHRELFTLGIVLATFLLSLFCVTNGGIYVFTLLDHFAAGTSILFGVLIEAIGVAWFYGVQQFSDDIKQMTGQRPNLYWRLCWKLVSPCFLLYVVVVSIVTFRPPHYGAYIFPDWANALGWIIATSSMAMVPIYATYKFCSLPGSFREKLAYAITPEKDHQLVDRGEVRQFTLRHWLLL

This assay addresses Sodium-dependent dopamine transporter (Rattus norvegicus, UniProt P23977). Nature of the assay: Displacement of [3H]GBR-12935 from dopamine transporter of rat caudate-putamen. It is filed as tissue-based. (In general: In a radioligand displacement assay an active substance lowers the binding of a labelled ligand.)

The Ki is the dissociation constant of the complex between target and ligand, obtained from inhibition or displacement. A lower Ki goes with a stronger hold on the target. In turn, `CN(C)CCCC1(c2ccc(F)cc2)OCc2cc(C#N)ccc21` (stereo unspecified) [CITALOPRAM] came in with a Ki of 16.5 µM.
